Test results from US9365613B2, “Acylated 4-amidino- and -4-guanidinobenzylamines for inhibition of plasma kallikrein” (The Medicines Company (Leipzig) GmbH, priority 2003, dated 2016).

Protein sequences, listed by entry. Tags and fused reporters are not part of them. Lines headed by an entry give the natural chain unless they say otherwise; changes in a name come on top. Residues count along the entry.
UniProt P03952, 391-638 limits assumed: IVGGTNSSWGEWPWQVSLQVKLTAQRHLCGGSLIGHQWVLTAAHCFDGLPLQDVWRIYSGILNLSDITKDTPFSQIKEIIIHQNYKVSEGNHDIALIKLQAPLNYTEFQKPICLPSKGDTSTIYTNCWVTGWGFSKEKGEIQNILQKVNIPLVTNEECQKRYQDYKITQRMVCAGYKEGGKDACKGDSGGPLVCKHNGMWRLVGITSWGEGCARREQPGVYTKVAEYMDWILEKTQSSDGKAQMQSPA
UniProt P03952, 20-390 partner limits assumed: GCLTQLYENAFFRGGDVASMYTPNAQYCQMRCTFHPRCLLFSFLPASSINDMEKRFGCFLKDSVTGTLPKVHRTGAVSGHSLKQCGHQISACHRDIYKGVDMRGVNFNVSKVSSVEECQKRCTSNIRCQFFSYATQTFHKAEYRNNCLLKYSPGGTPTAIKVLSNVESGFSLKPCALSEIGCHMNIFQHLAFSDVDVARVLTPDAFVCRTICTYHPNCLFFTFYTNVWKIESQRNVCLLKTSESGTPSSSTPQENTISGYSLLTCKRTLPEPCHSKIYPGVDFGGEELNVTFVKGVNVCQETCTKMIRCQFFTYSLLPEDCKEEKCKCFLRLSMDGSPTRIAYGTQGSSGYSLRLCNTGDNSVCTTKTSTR
UniProt P03951, 388-625 limits assumed: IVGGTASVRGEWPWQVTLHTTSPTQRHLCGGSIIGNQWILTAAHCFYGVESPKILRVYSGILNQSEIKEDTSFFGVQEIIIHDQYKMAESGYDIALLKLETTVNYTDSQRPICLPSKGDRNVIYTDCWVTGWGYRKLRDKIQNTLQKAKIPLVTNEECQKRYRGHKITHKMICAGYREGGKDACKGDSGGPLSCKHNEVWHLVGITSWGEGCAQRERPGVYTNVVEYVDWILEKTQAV
UniProt P03951, 19-387 partner limits assumed: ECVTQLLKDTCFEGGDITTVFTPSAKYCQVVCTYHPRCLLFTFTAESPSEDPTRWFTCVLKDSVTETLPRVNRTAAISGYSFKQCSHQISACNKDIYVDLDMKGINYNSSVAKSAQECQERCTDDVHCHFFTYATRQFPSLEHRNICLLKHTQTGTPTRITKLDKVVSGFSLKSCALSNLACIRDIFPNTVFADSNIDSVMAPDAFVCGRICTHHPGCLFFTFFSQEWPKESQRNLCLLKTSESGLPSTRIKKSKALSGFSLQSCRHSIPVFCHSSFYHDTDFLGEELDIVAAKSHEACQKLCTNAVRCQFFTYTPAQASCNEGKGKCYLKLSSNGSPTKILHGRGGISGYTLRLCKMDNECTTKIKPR
UniProt P00748, 373-615 limits assumed: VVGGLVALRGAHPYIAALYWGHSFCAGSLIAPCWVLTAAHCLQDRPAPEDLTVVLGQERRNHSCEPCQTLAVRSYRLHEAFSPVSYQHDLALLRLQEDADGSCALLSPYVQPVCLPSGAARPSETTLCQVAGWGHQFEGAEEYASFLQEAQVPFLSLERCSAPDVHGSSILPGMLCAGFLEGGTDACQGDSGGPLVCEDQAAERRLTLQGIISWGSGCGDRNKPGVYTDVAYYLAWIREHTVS

Columns and labels:
[1] = target: plasma kallikrein (PK) (Homo sapiens, UniProt P03952); assay: Determining the inhibitory constants: inhibition of PK (substrate Bzl-Pro-Phe-Arg-pNA); details: read-out: Ki PK; Tris buffer pH 8.0, 25° C.; mean of at least three determinations; tested form: 2 TFA
Procedure: (§1) The inhibitory effect for the individual enzymes was determined in analogy with a method which has already been described (Stürzebecher et al., J. Med. Chem. 40, 3091-3099, 1997).
(§2) Specifically for determining the inhibition of PK, 200 μl of Tris buffer (0.05 M, 0.154 M NaCI, 5% ethanol, pH 8.0; contains the inhibitor), 50 μl of substrate (Bzl-Pro-Phe-Arg-pNA in H2O) and 25 μl of PK were incubated at 25° C. After 3 min, the reaction was terminated by adding 25 μl of acetic acid (50%) and the absorption at […] was determined using a Microplate Reader (Labsystems iEMS Reader MF). The Ki values were determined, in accordance with Dixon (Biochem. J. 55, 170-171, 1953), by means of linear regression and using a computer program. The Ki values are the mean of at least three determinations.

[2] = target: human factor XIa (Homo sapiens, UniProt P03951); assay: Inhibitory constants for factor XIa (substrate H-D-Lys(Z)-Pro-Arg-pNA, Chromozym PCa); details: read-out: Ki F XIa, tested form: 2 TFA
Procedure: as §1, §2
(§3) The inhibition of factor XIa and factor XIIa was determined in an analogous manner. When determining the inhibitory constants for human factor XIa (Haemochrom Diagnostica GmbH, Essen, Germany), H-D-Lys(Z)-Pro-Arg-pNA (Chromozym PCa, Roche Diagnostics GmbH, Mannheim, Germany) was used as the substrate.

[3] = target: human factor XIIa (Homo sapiens, UniProt P00748); assay: Inhibitory constants for factor XIIa (substrate H-D-HHT-Gly-Arg-pNA, Chromozym XII); details: read-out: Ki F XIIa, tested form: 2 TFA
Procedure: as §1, §2, §3
H-D-HHT-Gly-Arg-pNA (Chromozym XII, Roche Diagnostics GmbH, Mannheim, Germany) was used as the substrate for measuring the inhibitory constants of human factor XIIa (Haemochrom Diagnostica GmbH, Essen, Germany).

Ki [1]: 420 nM | Ki [2]: 330 nM | Ki [3]: 160 nM
Compound: N=C(N)c1ccc(CNC(=O)CNC(=O)[C@@H](CCc2ccccc2)NS(=O)(=O)Cc2ccncc2)cc1
